Reference: US8399457B2, “Pharmaceutical compounds” (Neuroscienze Pharmaness S.C. A.R.L., priority 2008, dated 2013)

Chains of the proteins cited; added tags and fusions are not shown.
UniProt P42866, whole entry: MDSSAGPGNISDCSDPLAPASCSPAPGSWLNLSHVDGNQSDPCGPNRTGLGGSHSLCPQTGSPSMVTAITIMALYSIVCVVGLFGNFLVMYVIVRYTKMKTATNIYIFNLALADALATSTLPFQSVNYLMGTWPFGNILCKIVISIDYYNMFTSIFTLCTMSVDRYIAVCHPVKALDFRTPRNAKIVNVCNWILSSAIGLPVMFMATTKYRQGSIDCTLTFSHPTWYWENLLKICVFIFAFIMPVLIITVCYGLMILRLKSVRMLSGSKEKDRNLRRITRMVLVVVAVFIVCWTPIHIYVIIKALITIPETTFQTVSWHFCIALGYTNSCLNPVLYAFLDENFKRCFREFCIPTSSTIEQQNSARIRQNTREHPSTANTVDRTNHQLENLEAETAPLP
UniProt P33534, whole entry: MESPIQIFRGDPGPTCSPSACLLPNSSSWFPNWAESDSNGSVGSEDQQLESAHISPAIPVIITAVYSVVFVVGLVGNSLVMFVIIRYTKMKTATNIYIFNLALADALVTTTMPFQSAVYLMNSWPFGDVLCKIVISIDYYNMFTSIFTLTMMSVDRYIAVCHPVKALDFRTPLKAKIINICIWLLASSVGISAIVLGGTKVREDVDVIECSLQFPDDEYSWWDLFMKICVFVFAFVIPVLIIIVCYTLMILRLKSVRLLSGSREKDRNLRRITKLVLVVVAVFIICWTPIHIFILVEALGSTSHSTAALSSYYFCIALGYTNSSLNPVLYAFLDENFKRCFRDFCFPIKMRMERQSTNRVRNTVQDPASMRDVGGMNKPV

Columns and labels:
Design in all cases: species or system CD1 male mice
[1] = target: opioidergic receptors δ (Mus musculus, UniProt P32300); test: Radioreceptorial binding, receptors δ, [3H]-DPDPE displacement in mouse brain membranes; conditions: read-out: Ki δ, 1 nM [3H]-DPDPE, 25° C.
[2] = target: opioidergic receptors μ (Mus musculus, UniProt P42866); test: Radioreceptorial binding, receptors μ, [3H]-DAMGO displacement in mouse brain membranes; conditions: read-out: Ki μ, 1 nM [3H]-DAMGO, 25° C.
[3] = target: opioidergic receptors k (Mus musculus, UniProt P33534); test: Radioreceptorial binding, receptors k, 3H-U 69.593 in mouse brain membranes; conditions: read-out: Ki k, 3H-U 69.593, 25° C.

Row | SMILES | Ki [1] | Ki [2] | Ki [3]
1 | CCC(=O)N1C2CCC1CN(C/C=C(\C)c1ccc(Cl)c3ccccc13)CC2 (stereo not shown) | > 5000 nM | – | –
2 | CCC(=O)N1CCC2CCC(C1)N2C/C=C(\C)c1ccc(Cl)c2ccccc12 (stereo not shown) | 2000 nM | 56.7 nM | 2500 nM
